# ChEMBL document CHEMBL3600302, “A Ligand-Based Drug Design. Discovery of 4-Trifluoromethyl-7,8-pyranocoumarin as a Selective Inhibitor of Human Cytochrome P450 1A2” (J Med Chem, 2015)
# Amino acid sequences for entries named in this document (tags omitted).
# UniProt P05177, whole entry: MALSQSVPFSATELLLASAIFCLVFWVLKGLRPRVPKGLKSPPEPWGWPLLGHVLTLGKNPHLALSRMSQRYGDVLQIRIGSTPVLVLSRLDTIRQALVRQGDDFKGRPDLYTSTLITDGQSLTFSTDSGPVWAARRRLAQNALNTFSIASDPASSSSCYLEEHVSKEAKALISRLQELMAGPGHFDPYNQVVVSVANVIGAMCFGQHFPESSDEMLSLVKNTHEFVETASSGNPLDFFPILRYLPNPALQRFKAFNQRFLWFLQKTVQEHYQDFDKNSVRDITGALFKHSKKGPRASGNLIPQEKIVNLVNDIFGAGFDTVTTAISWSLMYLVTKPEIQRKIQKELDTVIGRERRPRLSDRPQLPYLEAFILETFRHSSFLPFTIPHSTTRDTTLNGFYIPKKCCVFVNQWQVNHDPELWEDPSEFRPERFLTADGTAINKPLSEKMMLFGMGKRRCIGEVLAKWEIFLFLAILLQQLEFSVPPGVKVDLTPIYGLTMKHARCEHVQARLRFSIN
# Biological target: Cytochrome P450 1A2 (Homo sapiens, UniProt P05177)
# Assay: Inhibition of human microsomal CYP1A2-dependent methoxyresorufin-O-demethylase activity by spectrofluorimetric analysis in presence of NADPH regenerating solution
# Procedure, shortened: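 Microsomal P450 (final 5 nM) in 0.1 M potassium phosphate pH 7.6 with MgCl2 at 37 °C. Substrate final 5 µM: ethoxyresorufin for 1A1/1B1, methoxyresorufin for 1A2. Ki was taken as the x-intercept of Dixon plots (1/v0 vs [I]). Mean ± SD of three independent experiments. Selectivity ratios are ratios of these Ki.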
structure (smiles),measurement,value
O=c1cc(-c2ccccc2)oc2c3c(ccc12)OCC=C3,Ki,58 nM
